Reference: ChEMBL document CHEMBL2203077, “Discovery of a novel series of 4-quinolone JNK inhibitors” (Bioorg Med Chem Lett, 2012)

The chains behind the UniProt entries cited, without tags or fusion partners. Where a name states a change or a piece, a line headed by the entry shows the natural chain unless it says otherwise.
UniProt P45984: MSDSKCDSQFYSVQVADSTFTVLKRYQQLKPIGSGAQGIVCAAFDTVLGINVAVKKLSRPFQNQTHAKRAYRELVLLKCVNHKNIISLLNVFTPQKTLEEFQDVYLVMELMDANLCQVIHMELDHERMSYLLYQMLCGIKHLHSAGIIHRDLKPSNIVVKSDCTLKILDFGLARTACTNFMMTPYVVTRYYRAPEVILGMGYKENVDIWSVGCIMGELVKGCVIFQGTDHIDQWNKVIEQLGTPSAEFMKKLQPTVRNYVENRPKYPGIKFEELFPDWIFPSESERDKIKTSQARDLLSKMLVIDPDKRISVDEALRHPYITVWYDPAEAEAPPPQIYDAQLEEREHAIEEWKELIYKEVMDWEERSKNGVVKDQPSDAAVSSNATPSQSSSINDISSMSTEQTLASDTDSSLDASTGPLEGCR
UniProt P45983: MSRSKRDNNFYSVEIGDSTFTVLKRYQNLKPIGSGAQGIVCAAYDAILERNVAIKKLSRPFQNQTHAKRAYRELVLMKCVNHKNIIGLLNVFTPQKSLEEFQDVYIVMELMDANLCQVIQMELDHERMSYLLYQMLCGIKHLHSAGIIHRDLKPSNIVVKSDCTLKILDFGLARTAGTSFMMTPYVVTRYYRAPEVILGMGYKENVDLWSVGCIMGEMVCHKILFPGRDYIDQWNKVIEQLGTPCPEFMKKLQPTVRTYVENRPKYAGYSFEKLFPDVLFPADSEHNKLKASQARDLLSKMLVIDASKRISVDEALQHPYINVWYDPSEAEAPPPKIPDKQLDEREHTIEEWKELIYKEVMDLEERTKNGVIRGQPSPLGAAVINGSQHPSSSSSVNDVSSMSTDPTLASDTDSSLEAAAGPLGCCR

Key:
[1] = molecular target: Mitogen-activated protein kinase 9 (Homo sapiens, UniProt P45984); experiment: Inhibition of human JNK2 alpha2 using GST-tagged ATF2 as substrate and [gamma33P]ATP incubated for 10 mins prior to substrate addition measured after 30 mins by scintillation counting
[2] = molecular target: Mitogen-activated protein kinase 8 (Homo sapiens, UniProt P45983); experiment: Inhibition of human JNK1 alpha1 using GST-tagged ATF2 as substrate and [gamma33P]ATP incubated for 10 mins prior to substrate addition measured after 30 mins by scintillation counting

IC50 [1]: 72 nM
IC50 [2]: 43 nM
Compound: COC(=O)c1c(-c2ccccc2)c2cc(Br)ccc2c(=O)n1Cc1ccc(S(C)(=O)=O)cc1
